Literature values as cited in patent US11065330B2, “Induction of antigen-specific tolerance by peripheral phagocytosis” (PLS-Design GmbH, priority 2014, dated 2021).

Test system: NOD/Lt mice

VLGGG CALLRC IPALD SLTPA NED (VLGGGCALLRCIPALDSLTPANED; listed as Homo sapiens) [p277, 23-mer peptide derived from MT-hsp65]
mice developing diabetes within 30 days (i.p. 50 μg p277 in IFA, two weeks later MT-hsp65 50 μg in IFA): None of 10 | mice developing blood glucose higher than 130 mg/dl within 3 weeks (single i.p. 50 μg p277 in IFA): None of 7
